Laboratory results as given in US11041000B2, “Peptide inhibitors of interleukin-23 receptor and their use to treat inflammatory diseases” (priority 2019, dated 2021).

Amino acid sequences for entries named in this document (tags omitted). Residues count along the entry.
UniProt Q5VWK5, 24-629 limits assumed: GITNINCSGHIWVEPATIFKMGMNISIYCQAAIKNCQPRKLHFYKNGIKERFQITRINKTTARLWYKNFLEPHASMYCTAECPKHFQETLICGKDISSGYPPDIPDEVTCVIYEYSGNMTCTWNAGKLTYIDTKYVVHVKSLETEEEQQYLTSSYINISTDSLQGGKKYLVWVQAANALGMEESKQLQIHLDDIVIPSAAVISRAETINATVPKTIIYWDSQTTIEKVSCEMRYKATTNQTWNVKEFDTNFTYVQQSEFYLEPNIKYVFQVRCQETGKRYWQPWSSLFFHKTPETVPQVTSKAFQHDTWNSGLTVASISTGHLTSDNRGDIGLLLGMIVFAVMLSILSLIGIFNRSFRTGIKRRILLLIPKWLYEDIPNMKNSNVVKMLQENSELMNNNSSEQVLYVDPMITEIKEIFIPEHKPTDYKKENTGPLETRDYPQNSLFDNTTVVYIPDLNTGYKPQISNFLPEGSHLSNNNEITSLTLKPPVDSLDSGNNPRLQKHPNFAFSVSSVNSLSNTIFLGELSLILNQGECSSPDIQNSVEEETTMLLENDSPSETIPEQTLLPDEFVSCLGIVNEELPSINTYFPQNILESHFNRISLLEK

How the values were obtained:
[1] = Stability in simulated gastric fluid (SGF); format: in vitro ADME; settings: simulated gastric fluid with porcine pepsin, pH 2, 37° C., 20 μM peptide
Description: SGF was prepared by adding 20 mg NaCl, 32 mg porcine pepsin (MP Biochemicals, catalog 02102599), and 70 μl HCl to 10 ml water (final pH=2). Aliquots of SGF (0.5 ml each) were pre-warmed at 37° C. To start the reaction, 1 μl of peptide stock solution (10 mM in DMSO) was added to 0.5 ml SGF and thoroughly mixed such that the final peptide concentration was 20 μM. The reactions were incubated at 37° C. with gentle shaking. At each time point (0, 15, 30, 60 min) 50 μl aliquots were removed and added to 200 ul acetonitrile containing 0.1% formic acid to quench the reaction.

[2] = Stability in simulated intestinal fluid (SIF); format: in vitro ADME; settings: simulated intestinal fluid with pancreatin, pH 6.8, 37° C., matrix is 100 fold dilution of standard SIF concentration
[3] = biological target: IL-23R-expressing DB cells (Homo sapiens, UniProt Q5VWK5); assay: DB cells IL23R pSTAT3 cell assay (pStat3HTRF); format: cell-based; settings: DB cells stimulated with IL-23 0.5 nM, 30 minutes, phospho-STAT3 in cell lysates; read-out: pStat3 HTRF
Text: Human ELISA indicates the IL23-IL23R competitive binding assay described below, Rat ELISA indicates the rat IL-23R competitive binding ELISA assay described below, and pStat3HTRF indicates the DB cells IL-23R pSTAT3 cell assay described below. The peptides depicted in Table E1 are cyclized via a disulfide bridge formed between two Pen residues in these peptides. The peptides depicted in Table E2 are cyclized via a thioether bond between the indicated amino acid residues. Table E2 provides an illustrative structure depicting thioether cyclization, which is indicated in the table by the term “cyclo,” with the cyclic region bracketed immediately following the term “cyclo.” For certain peptides, the residue Abu is present where indicated, whereas in other embodiments, e.g., those related to the non-cyclized form, the Abu may be referred to as a hSer(Cl) or homoSer residue. The petpides depicted in Table E3 are cyclized via a disulfide bridge formed between two Pen residues or a thioether bond between Abu and Cys.
IL-23 plays a central role in supporting and maintaining Th17 differentiation in vivo. […] Changes in phospho-STAT3 levels in the cell lysates were detected using the Cisbio HTRF pSTAT3 (Tyr705) Cellular Assay Kit (Cisbio #62AT3PEH), according to manufacturer's Two Plate Assay protocol. Where not shown, data was not yet determined.

Stability in rat plasma = format: in vitro ADME; settings: both sexes, SD rat plasma, EDTA, 37° C., read-out: t½: Rat Plasma EDTA
[4] = Stability in cynomolgus monkey fecal homogenate; format: in vitro ADME; settings: 20% fecal homogenate (supernatant), pH 6.8, 20% cynomolgus monkey fecal homogenate, anaerobic, 37° C., read-out: t½: Monkey Feces anaerobic
Description: (§1) Centrifuged the homogenate at 2800×g for 15 min. The supernatant is taken out and used for incubations. […] The final test compound concentration was 20 μM.

[5] = Stability in human fecal homogenate; format: in vitro ADME; settings: 20% fecal homogenate (supernatant), pH 6.8, 20% human fecal homogenate, anaerobic, 37° C., read-out: t½: Human Feces anaerobic
Description: as §1

CC(=O)NCCCC[C@H](NC(=O)[C@](C)(CC(C)C)NC(=O)[C@H](Cc1ccc2ccccc2c1)NC(=O)[C@H](Cc1ccc(OCCN)cc1)NC(=O)[C@H]1NC(=O)[C@H](CCC(N)=O)NC(=O)[C@H](Cc2c[nH]c3c(C)cccc23)NC(=O)[C@H]([C@@H](C)O)NC(=O)[C@H](CC(N)=O)NC(=O)[C@@H](NC(C)=O)C(C)(C)SSC1(C)C)C(=O)N[C@@H](Cc1c[nH]cn1)C(=O)NCCC(N)=O [compound 214]
SGF t½ [1]: 24 h | SIF t½ ([2]; 20 μM): 24 h

CC(=O)NCCCC[C@H](NC(=O)[C@](C)(CCCCN)NC(=O)[C@H](Cc1ccc2ccccc2c1)NC(=O)[C@H](Cc1ccc(OCCN)cc1)NC(=O)[C@H]1NC(=O)[C@H](CCCCNC(=O)Cc2ccccc2)NC(=O)[C@H](Cc2c[nH]c3c(C)cccc23)NC(=O)[C@H]([C@@H](C)O)NC(=O)[C@H](CC(N)=O)NC(=O)[C@@H](NC(C)=O)C(C)(C)SSC1(C)C)C(=O)N[C@@H](CC(N)=O)C(=O)N[C@H](CC(C)C)C(N)=O [compound 318]
IC50 [3]: 1.9 nM

CC(=O)NCCCC[C@@H]1NC(=O)[C@H](Cc2c[nH]c3c(C)cccc23)NC(=O)[C@H]([C@@H](C)O)NC(=O)[C@H](CC(N)=O)NC(=O)[C@@H](NC(C)=O)C(C)(C)SSC(C)(C)[C@@H](C(=O)N[C@@H](Cc2ccc(OCCN)cc2)C(=O)N[C@@H](Cc2ccc3ccccc3c2)C(=O)N[C@@](C)(CCCCN)C(=O)N[C@@H](CCCCNC(=O)Cc2ccccc2)C(=O)N[C@@H](CC(N)=O)C(=O)N[C@H](CC(C)C)C(N)=O)NC1=O [compound 359]
half-life at 20 μM (Stability in rat plasma): > 24 h | half-life at 20 μM [4]: > 24 h | half-life at 20 μM ([2]; read-out: SIF t½ (converted)): 11 h | half-life at 20 μM [5]: > 24 h
